# Reference: article PMC6609384, “Pharmacokinetics of cucurbitacin B from Trichosanthes cucumerina L. in rats” (BMC Complementary and Alternative Medicine, 2019)
# Chains of the proteins cited; added tags and fusions are not shown. Lines headed by an entry give the natural chain unless they say otherwise; changes in a name come on top.
# UniProt P05804: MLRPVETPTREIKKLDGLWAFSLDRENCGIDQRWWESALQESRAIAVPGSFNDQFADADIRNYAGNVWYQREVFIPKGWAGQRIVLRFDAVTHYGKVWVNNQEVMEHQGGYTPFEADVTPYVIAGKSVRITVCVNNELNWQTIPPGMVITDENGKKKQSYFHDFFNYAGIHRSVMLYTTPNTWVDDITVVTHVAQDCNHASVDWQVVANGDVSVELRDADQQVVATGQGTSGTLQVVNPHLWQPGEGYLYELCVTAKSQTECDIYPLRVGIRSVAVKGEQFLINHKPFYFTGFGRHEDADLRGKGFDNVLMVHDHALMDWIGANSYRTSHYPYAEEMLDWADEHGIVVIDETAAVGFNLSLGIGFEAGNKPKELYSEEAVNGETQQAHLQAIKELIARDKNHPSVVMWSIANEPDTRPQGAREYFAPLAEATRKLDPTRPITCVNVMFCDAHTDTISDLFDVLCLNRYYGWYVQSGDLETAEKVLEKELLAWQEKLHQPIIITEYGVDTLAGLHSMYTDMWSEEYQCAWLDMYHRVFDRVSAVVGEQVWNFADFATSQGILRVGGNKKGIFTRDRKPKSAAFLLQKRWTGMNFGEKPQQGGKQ
# How the values were obtained:
# [1] = cited from earlier work
# [2] = cited from earlier work; remark: listed apart in the source
# [3] = Pharmacokinetic experiment: cucurbitacin B plasma level after intravenous and oral administration (LC-MS/MS, non-compartmental analysis); format: in vivo, male Wistar rats; conditions: for Cmax: rat plasma
# Experimental: (§1) Cucurbitacin B solution in DMSO/water for injection was administered to the rats at different doses and routes (intravenous cucurbitacin B at 0.1 mg/kg, and oral cucurbitacin B at 2–4 mg/kg). All cucurbitacin B solution given to the animals was prepared freshly prior to the experiment. Each rat was anesthetized with 10% isoflurane by chamber induction method before intravenous administration or blood collection. Both approaches were conducted via lateral tail vein. The dose of cucurbitacin B for injection was calculated based on amount of cucurbitacin B in the solution to obtain an equivalent dose of 0.1 mg/kg. In the case of oral administration, a gavage needle was used to supply the pre-specified dose of cucurbitacin B at 2, and 4 mg/kg. For blood collection, pre-heparinized needles and syringes were used during the blood sampling process. Approximately 300 μL of blood sample was collected serially after cucurbitacin B administration at different time points as follows: 0.083 (5 min), 0.25 (15 min), 0.5 (30 min), 1, 2, 4, 8, 16, and 24 h. Collected blood samples were then centrifuged at 3000×g for 10 min to obtain plasma, and stored at − 20 °C until further process. After each blood sampling session, the rat was placed in the metabolic cage, then urine and feces were segregated and collected automatically by the functionality of cages at distinct periods of time comprehensive of 0–24, and 24–48 h. Measurement of urine volume and feces weight were completed right after sample collection, then they were stored at − 20 °C until analysis.
# Protein precipitation was the extraction procedure used in this study. In brief, plasma 50 μL was treated with 200 μL of methanol containing 25 ng of glycyrrhizic acid as the internal standard. The samples were mixed for 10 min and then centrifuged at 10,000×g for 10 min. One hundred fifty microliter of supernatant from each sample was collected for further LC-MS/MS analysis.
# LC-MS/MS was used to determine cucurbitacin B level in biological samples. Nexera UHPLC (Kyoto, Japan) consisting of a vacuum degasser, a binary pump, an autosampler, and a column thermostat equipped with Shimadzu 8060 LCMS (Kyoto, Japan) was applied for this experiment. Control of both liquid chromatography and mass spectrometer was operated by LabSolution version 5.86 software (Kyoto, Japan). The mobile phase used in the system comprised of 0.2% v/v formic acid in water (pH 2.5), and methanol. Gradient phase elution was performed in every sample analysis. […] The flow rate used in the system was 0.3 mL/min with an injection volume of 15 μL. C18 reversed phase column, model Phenomenex Synergi Fusion-RP (Torrance, United States) equipped with Guard C18 column, model Phenomenex SecurityGuard Fusion-RP (Torrance, United States) was used for compound separation process. Column oven was maintained at 40 °C throughout the analytical procedure.
# Biochemical markers including AST, ALT, and creatinine were presented as mean ± standard deviation (SD). Comparison of these markers between pre- and post-treatment groups was conducted by paired sample t-test in which statistical difference was decided at p-value < 0.05. Cucurbitacin B plasma levels obtained from LC-MS/MS analysis were further analyzed by constructing the curve between the calculated concentrations (μg/L) and blood sampling time points (h). Cucurbitacin B plasma concentrations in the plasma concentration-time curve were reported as mean ± SD. Pharmacokinetic parameters were computed by PK solutions 2.0 software (Montrose, United States) with non-compartmental analysis. The pharmacokinetic parameters were listed as follows: maximum plasma concentration (Cmax), time to maximum plasma concentration (Tmax), area under the curve from time zero to last sampling time point (AUC0-t), area under the curve from time zero to infinity (AUC0-inf), absolute oral bioavailability (F), elimination half-life (t1/2), volume of distribution (Vd), clearance (CL), and mean residence time (MRT). […]
# [4] = Tissue distribution: tissue to plasma concentration ratio (Kapp) after intravenous administration; format: in vivo, male Wistar rats; conditions: 0.1 mg/kg IV
# Experimental: Heart, lungs, liver, stomach, spleen, small intestine, kidneys, and brain were collected after intravenous administration of cucurbitacin B 0.1 mg/kg injection. Euthanization was performed by 10% isoflurane with prolonged exposure at 1, 2, and 4 h after administration, and death was confirmed by exsanguination. Before organ removal, 1 mL of blood was withdrawn by cardiac puncture procedure, centrifuged at 3000×g for 10 min to obtain plasma, and stored at − 20 °C until further analysis. Unnecessary connective tissue was removed from the isolated organs by surgical blade and scissor. Excessive blood within the removed organs was washed twice by 0.9% saline solution at the temperature below 4 °C.
# Internal organs including heart, lungs, liver, stomach, spleen, small intestine, kidneys, mammary glands, and brain were weighed out in 50 mg aliquots and then mixed with 200 μL of methanol containing 25 ng of glycyrrhizic acid. The mixture was later homogenized in an ice bath for 10 min and then centrifuged at 10,000×g for 10 min. One hundred fifty microliter of supernatant from each sample was collected for further LC-MS/MS analysis.
# All of these pharmacokinetic parameters were presented as mean ± SD. For the tissue distribution study, the extent of cucurbitacin B that resided in each organ was depicted as tissue to plasma concentration ratio (Kapp). This parameter was computed by comparing concentration of cucurbitacin B in each internal organ to that obtained from plasma with the identical time point. […] All statistical analyses were performed by using IBM SPSS Statistics version 22 (Armonk, United States).
# β-glucuronidase = β-glucuronidase (Escherichia coli, UniProt P05804); format: in vitro ADME; conditions: excreta samples, 1000 units, 15 min
# Experimental: Excretion of unchanged cucurbitacin B was assessed by calculating the recovery compared to the given dose. […] Currently, there was no available cucurbitacin B metabolism profile, and glucuronide conjugated cucurbitacin B was proposed as a major metabolite. Other reports mentioned that the metabolic pathway of cucurbitacin derivatives, cucurbitacin D and I, were metabolized by glucuronidation reactions. Therefore, we incubated the excreta samples with β-glucuronidase from Escherichia coli (1000 units) for 15 min, the reaction was stopped by adding the methanol and then evaluated for unconjugated cucurbitacin B by LC-MS/MS. […] Metabolite screening was also performed by using Agilent 6540 UHD Accurate Mass TOF LC/MS (Santa Clara, United States) in positive ionization mode (data not shown). There were some interesting molecules, which were detected in urine and fecal samples including 835.2322, 319.1372, and 222.0799 Da. Precisely matching and characterizing possible metabolites will require future study. From current knowledge, we concluded that cucurbitacin B was not metabolized by direct glucuronide conjugation. The molecule might be involved in the complex processes of phase I combined with phase II enzymatic reactions.
# [5] = Stability of cucurbitacin B in QC samples at different storage conditions; format: in vitro ADME, rat
# Experimental: The analytical method was performed according to US FDA bioanalytical method validation - guidance for industry. The following parameters were evaluated during the validation process including: selectivity, matrix effect and recovery, linearity, lower limit of quantification (LLOQ), accuracy, precision, and stability. Quality control (QC) samples were prepared prior to the validation process and three concentrations of analytical cucurbitacin B standard solution including 0.5, 10, and 15 μg/L were selected as representatives of low, medium, and high concentration, respectively.
# The stability test consisted of short term stability at room temperature, long term stability at storage conditions, freeze-thaw stability, and autosampler stability. Short term stability was evaluated at room temperature for 24 h. Long term stability was assessed at − 20 °C for 3 months. The freeze–thaw stability of cucurbitacin B was tested by analyzing QC at three different concentrations subjected to three freeze-thaw cycles (− 20 and 25 °C). Lastly, autosampler stability was determined by measuring the peak area obtained from freshly prepared QC samples compared with samples that were stored in the autosampler compartment for 24 h.
# [6] = Excretion study: recovery of unchanged cucurbitacin B in urine and feces; format: in vivo, male Wistar rats
# Experimental: as §1
# For urine samples, the volume of each sample was measured, mixed for 10 min, centrifuged at 3000×g for 10 min and each supernatant was collected. Fifty microliter of supernatant was mixed with 200 μL of methanol containing 25 ng of glycyrrhizic acid. The final mixture was centrifuged at 10,000×g for 10 min and 150 μL of supernatant from each sample was collected for further LC-MS/MS analysis.
# The weight of each feces sample was measured, homogenized, and adjusted to the total volume of 10 mL by methanol. Centrifugation at 3000×g for 10 min was performed and then supernatant was collected from each sample. Fifty microliter of supernatant was mixed with 200 μL of methanol containing 25 ng of glycyrrhizic acid. The final mixture was centrifuged at 10,000×g for 10 min and 150 μL of supernatant from each sample was collected for further LC-MS/MS analysis.
# [7] = 0.1 mg/kg IV, listed as cucurbitacin B
substance,measurement,setting,value
Cucurbitacin B,previously reported half-life,[1],2.50 to 3.19 h
same,elimination half-life,"[1]; rats, 20 mg/kg in 0.5% CMC",approximately 2.5 h
same,time to highest concentration,"[1]; rats, 20 mg/kg in 0.5% CMC",≤ 1.75 h
same,previously reported Tmax,[1]; suspensions in carboxymethylcellulose,1.75 to 2.41 h
same,solubility in water,[2],slightly soluble
same,AUC0-inf,[3]; 0.1 mg/kg IV,17.95 ± 13.21 ng·h/mL
same,AUC0-t,[3]; 0.1 mg/kg IV,13.92 ± 11.11 ng·h/mL
same,CL (clearance),[3]; 0.1 mg/kg IV,121 ± 48.7 mL/min/kg
same,MRT,[3]; 0.1 mg/kg IV,6.03 ± 2.93 h
same,Vd (volume of distribution),[3]; 0.1 mg/kg IV,51.65 ± 39.16 L/kg
same,t1/2 (elimination half-life),[3]; 0.1 mg/kg IV,5.08 ± 2.87 h
same,CL (clearance),[3]; [7],approximately 7.24 L/h/kg
same,Vd (volume of distribution),[3]; [7],about 51.65 L/kg
same,t1/2 (elimination half-life),[3]; [7],approximately 5.08 ± 2.87 h
same,AUC0-inf,[3]; 2 mg/kg PO,25.33 ± 12.13 ng·h/mL
same,AUC0-t,[3]; 2 mg/kg PO,15.10 ± 3.57 ng·h/mL
same,MRT,[3]; 2 mg/kg PO,9.95 ± 12.27 h
same,Tmax,[3]; 2 mg/kg PO,0.50 ± 0.00 h
same,F (absolute oral bioavailability),[3]; 2 mg/kg PO vs 0.1 mg/kg IV,10.25 ± 7.29%
same,Cmax,[3]; 2 mg/kg PO,9.70 ± 3.95 ng/mL
same,Cmax,"[3]; 2 mg/kg PO, listed as cucurbitacin B",approximately 9.70 μg/L
same,cucurbitacin B concentration in plasma,"[3]; 2 mg/kg oral, within 8 h",1.09 µg/L
same,AUC0-inf,[3]; 4 mg/kg PO,52.42 ± 29.58 ng·h/mL
same,AUC0-t,[3]; 4 mg/kg PO,45.22 ± 10.14 ng·h/mL
same,MRT,[3]; 4 mg/kg PO,5.50 ± 2.28 h
same,Tmax,[3]; 4 mg/kg PO,0.60 ± 0.22 h
same,F (absolute oral bioavailability),[3]; 4 mg/kg PO vs 0.1 mg/kg IV,10.25 ± 5.63%
same,Cmax,[3]; 4 mg/kg PO,31.24 ± 10.50 ng/mL
same,Cmax,"[3]; 4 mg/kg PO, listed as cucurbitacin B",~31.24 ng/mL
same,cucurbitacin B concentration in plasma,"[3]; 4 mg/kg oral, within 8 h",2.66 µg/L
same,time to highest concentration in plasma,"[3]; after oral doses, 2 and 4 mg/kg",≤ 1 h
same,time to reach maximum concentration,"[3]; after oral dosing, 2–4 mg/kg",≤ 30 min
same,absolute oral bioavailability,"[3]; both oral doses, 2 and 4 mg/kg",approximately 10%
same,cucurbitacin B concentration in plasma,"[3]; both oral doses, at 16 h, LLOQ 0.1 μg/L",could not be further detected
same,AUC0-inf after 4 mg/kg oral dosing relative to 2 mg/kg,[3]; oral,2 fold
same,maximum concentration in plasma after normalization by dose,[3]; oral 2–4 mg/kg,4.85 to 7.81 µg/L
same,"tissue to plasma concentration ratio (Kapp), liver, stomach and small intestine",[4]; 1 h,4–14 times
same,"tissue to plasma concentration ratio (Kapp), lung",[4]; 1 h,about 60 times
same,"tissue to plasma concentration ratio (Kapp), spleen",[4]; 1 h,about 60 times
same,"tissue to plasma concentration ratio (Kapp), liver",[4]; 2 h,23.72
same,"tissue to plasma concentration ratio (Kapp), lung",[4]; 2 h,around 240 times
same,"tissue to plasma concentration ratio (Kapp), spleen",[4]; 2 h,around 240 times
same,"tissue to plasma concentration ratio (Kapp), liver",[4]; 4 h,38.29
same,cucurbitacin B concentration in brain and heart,[4]; LLOQ 0.1 μg/L,lower than the LLOQ
same,cucurbitacin B concentration after β-glucuronidase reaction compared to without reaction,β-glucuronidase,not significantly different
same,%Recovery (stability),"[5]; Autosampler (10 °C), QC 0.5 μg/L",89.05%
same,%Recovery (stability),"[5]; Autosampler (10 °C), QC 10 μg/L",109.57%
same,%Recovery (stability),"[5]; Autosampler (10 °C), QC 15 μg/L",100.75%
same,room temperature stability (recovery),[5]; QC samples left at 25 °C for 24 h,81.30–86.10%
same,%Recovery (stability),"[5]; Room temperature (12 h), QC 0.5 μg/L",81.34%
same,%Recovery (stability),"[5]; Room temperature (12 h), QC 10 μg/L",83.32%
same,%Recovery (stability),"[5]; Room temperature (12 h), QC 15 μg/L",86.16%
same,%Recovery (stability),"[5]; Storage at −20 °C (3 months), QC 0.5 μg/L",90.54%
same,%Recovery (stability),"[5]; Storage at −20 °C (3 months), QC 10 μg/L",99.72%
same,%Recovery (stability),"[5]; Storage at −20 °C (3 months), QC 15 μg/L",97.93%
same,%Recovery (stability),"[5]; Three freeze-thaw cycles, QC 0.5 μg/L",92.01%
same,%Recovery (stability),"[5]; Three freeze-thaw cycles, QC 10 μg/L",99.50%
same,%Recovery (stability),"[5]; Three freeze-thaw cycles, QC 15 μg/L",99.54%
same,stability (recovery),[5]; all test conditions,81.30–109.50%
same,"Recovery of unchanged compound, feces at 0-24 h",[6]; 0.1 mg/kg IV,< 1.00%
same,"Recovery of unchanged compound, feces at 24-48 h",[6]; 0.1 mg/kg IV,< 1.00%
same,"Recovery of unchanged compound, urine at 0-24 h",[6]; 0.1 mg/kg IV,< 1.00%
same,"Recovery of unchanged compound, urine at 24-48 h",[6]; 0.1 mg/kg IV,< 1.00%
same,"Recovery of unchanged compound, feces at 0-24 h",[6]; 2 mg/kg PO,< 1.00%
same,"Recovery of unchanged compound, feces at 24-48 h",[6]; 2 mg/kg PO,< 1.00%
same,"Recovery of unchanged compound, urine at 0-24 h",[6]; 2 mg/kg PO,< 1.00%
same,"Recovery of unchanged compound, urine at 24-48 h",[6]; 2 mg/kg PO,< 1.00%
same,"Recovery of unchanged compound, feces at 0-24 h",[6]; 4 mg/kg PO,< 1.00%
same,"Recovery of unchanged compound, feces at 24-48 h",[6]; 4 mg/kg PO,< 1.00%
same,"Recovery of unchanged compound, urine at 0-24 h",[6]; 4 mg/kg PO,< 1.00%
same,"Recovery of unchanged compound, urine at 24-48 h",[6]; 4 mg/kg PO,< 1.00%
same,"unchanged cucurbitacin B in urine and feces, share of administered dose","[6]; excreta 0–48 h after dosing, all doses",less than 1%
